Measured values from PMC2920070 (Journal of medicinal chemistry, 2010).

The chains behind the UniProt entries cited, without tags or fusion partners. Residues count along the entry.
UniProt Q62645, 28-1323: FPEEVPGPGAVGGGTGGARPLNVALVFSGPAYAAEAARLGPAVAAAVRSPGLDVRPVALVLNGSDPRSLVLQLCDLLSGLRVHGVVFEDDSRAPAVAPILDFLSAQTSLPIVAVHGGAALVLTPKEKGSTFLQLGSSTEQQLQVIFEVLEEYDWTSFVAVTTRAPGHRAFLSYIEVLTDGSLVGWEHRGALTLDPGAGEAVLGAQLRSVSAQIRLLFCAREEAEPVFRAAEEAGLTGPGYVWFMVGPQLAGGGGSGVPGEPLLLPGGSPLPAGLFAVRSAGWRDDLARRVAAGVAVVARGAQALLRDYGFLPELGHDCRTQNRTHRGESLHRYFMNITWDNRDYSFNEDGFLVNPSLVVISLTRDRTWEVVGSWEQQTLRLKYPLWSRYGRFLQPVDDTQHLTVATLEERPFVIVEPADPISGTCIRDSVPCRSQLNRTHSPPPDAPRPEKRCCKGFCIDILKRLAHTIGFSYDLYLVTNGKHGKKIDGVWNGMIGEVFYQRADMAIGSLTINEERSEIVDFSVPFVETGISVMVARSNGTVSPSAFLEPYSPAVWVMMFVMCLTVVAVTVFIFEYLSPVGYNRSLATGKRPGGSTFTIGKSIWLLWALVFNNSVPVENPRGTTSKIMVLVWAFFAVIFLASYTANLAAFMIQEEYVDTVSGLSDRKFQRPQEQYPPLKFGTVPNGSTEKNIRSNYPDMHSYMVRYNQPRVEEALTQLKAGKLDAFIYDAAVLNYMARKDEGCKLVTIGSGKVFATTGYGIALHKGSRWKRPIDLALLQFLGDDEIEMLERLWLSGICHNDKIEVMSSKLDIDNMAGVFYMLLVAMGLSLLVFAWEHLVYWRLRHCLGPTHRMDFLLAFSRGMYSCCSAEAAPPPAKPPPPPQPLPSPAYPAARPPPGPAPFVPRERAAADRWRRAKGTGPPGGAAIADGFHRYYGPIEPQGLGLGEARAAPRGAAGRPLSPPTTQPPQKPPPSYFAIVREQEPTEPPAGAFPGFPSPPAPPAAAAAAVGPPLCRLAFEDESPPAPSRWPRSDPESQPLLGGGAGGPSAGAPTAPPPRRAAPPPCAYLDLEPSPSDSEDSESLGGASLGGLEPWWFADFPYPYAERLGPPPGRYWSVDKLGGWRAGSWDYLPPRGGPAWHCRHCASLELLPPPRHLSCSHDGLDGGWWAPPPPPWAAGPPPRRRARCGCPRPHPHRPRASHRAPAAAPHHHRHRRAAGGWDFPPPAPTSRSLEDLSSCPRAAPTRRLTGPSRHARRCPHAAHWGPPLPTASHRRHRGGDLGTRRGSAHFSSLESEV

Molecular target: NR1/NR2D (Rattus norvegicus, UniProt P35439+Q62645)
Test: Two-electrode voltage-clamp, recombinant NR1/NR2D in Xenopus oocytes
Format: cell-based
Conditions: selectivity ratio

- GluR1/NR2D: (IC50 GluR1)/(IC50 NR2D): >20
Structure (SMILES): O=C(O)c1ccc(-n2c(/C=C/c3ccc([N+](=O)[O-])cc3)nc3ccccc3c2=O)cc1 [Compound 7]
